Entries after “also recorded” stand apart in the source; their conditions may differ.
Legend:
Olfr691 [1] = target: T1, Olfr691 (Mus musculus, UniProt Q8VGW5); assay: dual-luciferase (cAMP/CREB reporter) ligand screen, Olfr691 in HEK293T cells; format: cell-based; parameters: key to Olfr691 response in dual-luciferase assay: ‘+’ or ‘–‘ in each column indicates if the olfactory receptor responded or had no effect to that specific chemical; -: ‘+’ or ‘–‘ in each column indicates if the olfactory receptor responded or had no effect to that specific chemical
T1 construct: Lucy (N); expressed in transfected cells; host or cells: HEK293T, co-transfected with RTP1S
T1 sequence (Q8VGW5 1-322): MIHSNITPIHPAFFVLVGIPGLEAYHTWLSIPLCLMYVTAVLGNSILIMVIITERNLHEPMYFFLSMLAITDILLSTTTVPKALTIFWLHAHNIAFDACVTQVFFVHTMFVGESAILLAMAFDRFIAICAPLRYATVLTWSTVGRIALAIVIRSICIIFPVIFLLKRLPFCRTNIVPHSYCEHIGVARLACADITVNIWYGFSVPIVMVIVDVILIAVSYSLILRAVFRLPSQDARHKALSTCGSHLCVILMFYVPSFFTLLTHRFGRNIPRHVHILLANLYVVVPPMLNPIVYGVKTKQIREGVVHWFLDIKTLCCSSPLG

Olfr31 = target: T2, Olfr31 (Mus musculus, UniProt Q3KPA7); assay: dual-luciferase (cAMP/CREB reporter) ligand screen, Olfr31 in HEK293T cells; format: cell-based; parameters: key: ‘+’ or ‘–‘ in each column indicates if the olfactory receptor responded or had no effect to that specific chemical; -: ‘+’ or ‘–‘ in each column indicates if the olfactory receptor responded or had no effect to that specific chemical; conditions: chemicals tested individually, screened at 500uM (* also at 100uM)
T2 construct: expressed in transfected cells; host or cells: HEK293T, co-transfected with RTP1S
T2 sequence (Q3KPA7 1-317): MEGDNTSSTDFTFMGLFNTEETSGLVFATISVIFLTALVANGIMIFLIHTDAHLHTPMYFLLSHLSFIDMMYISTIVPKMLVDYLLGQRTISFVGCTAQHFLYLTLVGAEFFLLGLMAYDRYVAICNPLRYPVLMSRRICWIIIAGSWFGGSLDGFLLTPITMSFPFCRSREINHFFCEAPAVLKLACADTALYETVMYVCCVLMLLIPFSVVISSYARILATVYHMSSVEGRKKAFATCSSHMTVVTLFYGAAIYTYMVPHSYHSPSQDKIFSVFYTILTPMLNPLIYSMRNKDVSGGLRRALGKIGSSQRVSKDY

Olfr691 [2] = target: T1, Olfr691; parameters: method as in PMID 15550249; conditions: cited from earlier work

- Relative response at 0.5mM (Olfr691 [1]; 0.5 mM ligand, normalized to the response of Olfr691 to the strongest ligand, 4-pentenoate, listed as Isovalerate): 73 ± 4.8
- Olfr691 response in dual-luciferase assay (Olfr691 [1]; chemicals tested individually, screened at 500uM (* also at 100uM)): +
- Olfr31 response in dual-luciferase assay (Olfr31): -
SMILES: CC(C)CC(=O)O [isovaleric acid]
- Olfr691 response (in words) (Olfr691 [1]; luciferase assay, co-expressed with RTP1S, listed as isovalerate): dose dependent manner; also recorded: able to confirm
- previously reported ligand of Olfr691 (Olfr691 [2]): previously reported
